Laboratory results taken from US5023244A, “Anti-dementia agents” (Hoechst Japan Limited, priority 1986, dated 1991).

Tested on: adenosine receptors

Cn1c(=O)c2[nH]cnc2n(C)c1=O [theophylline]
Memory-improving effects of adenosine derivatives (I) after prior administration of theophylline: the effects were reduced
